{"source": "paper PMC9176655", "about": "“Nebulized fusion inhibitory peptide protects cynomolgus macaques from measles virus infection” (Research Square, 2022)", "tested_on": "MeV IC323-eGFP", "assay": "Nebulized peptide in MeV-infected cynomolgus macaques", "details": "3 ml of 4 mg/ml nebulized 24 h and 6 h before and 24 h after 10^4 PFU intra-tracheal; 3 animals/group; blue light", "data": [{"smiles": "CC[C@H](C)[C@H](NC(=O)[C@H](C)NC(=O)[C@H](CC(N)=O)NC(=O)CNC(=O)[C@H](CC(C)C)NC(=O)[C@H](CC(N)=O)NC(=O)[C@@H](NC(=O)CNC(=O)[C@@H](NC(=O)[C@H](CC(=O)O)NC(=O)[C@H](CC(C)C)NC(=O)[C@H](CCCNC(=N)N)NC(=O)[C@H](CCC(=O)O)NC(=O)[C@H](CC(C)C)NC(=O)[C@H](CO)NC(=O)[C@@H](NC(=O)[C@@H]1CCCN1C(=O)[C@@H]1CCCN1)[C@@H](C)CC)C(C)C)[C@@H](C)O)C(=O)N[C@@H](C)C(=O)N[C@@H](CCCCN)C(=O)N[C@@H](CC(C)C)C(=O)N[C@@H](CCC(=O)O)C(=O)N[C@@H](CC(=O)O)C(=O)N[C@@H](C)C(=O)N[C@@H](CCCCN)C(=O)N[C@@H](CCC(=O)O)C(=O)N[C@@H](CC(C)C)C(=O)N[C@@H](CC(C)C)C(=O)N[C@@H](CCC(=O)O)C(=O)N[C@@H](CO)C(=O)N[C@@H](CO)C(=O)N[C@@H](CC(=O)O)C(=O)N[C@@H](CCC(N)=O)C(=O)N[C@H](C(=O)N[C@@H](CC(C)C)C(=O)N[C@@H](CCCNC(=N)N)C(=O)NCC(=O)N[C@@H](CO)C(=O)NCC(=O)N[C@@H](CO)C(=O)NCC(=O)N[C@@H](CSC1CC(=O)N(CCCC(=O)NCCOCCOCCOCCOCCC(=O)NCCN(CCNC(=O)CCOCCOCCOCCOCCNC(=O)CCCN2C(=O)CC(SC[C@H](NC(=O)CNC(=O)[C@H](CO)NC(=O)CNC(=O)[C@H](CO)NC(=O)CNC(=O)[C@H](CCCNC(=N)N)NC(=O)[C@H](CC(C)C)NC(=O)[C@@H](NC(=O)[C@H](CCC(N)=O)NC(=O)[C@H](CC(=O)O)NC(=O)[C@H](CO)NC(=O)[C@H](CO)NC(=O)[C@H](CCC(=O)O)NC(=O)[C@H](CC(C)C)NC(=O)[C@H](CC(C)C)NC(=O)[C@H](CCC(=O)O)NC(=O)[C@H](CCCCN)NC(=O)[C@H](C)NC(=O)[C@H](CC(=O)O)NC(=O)[C@H](CCC(=O)O)NC(=O)[C@H](CC(C)C)NC(=O)[C@H](CCCCN)NC(=O)[C@H](C)NC(=O)[C@@H](NC(=O)[C@H](C)NC(=O)[C@H](CC(N)=O)NC(=O)CNC(=O)[C@H](CC(C)C)NC(=O)[C@H](CC(N)=O)NC(=O)[C@@H](NC(=O)CNC(=O)[C@@H](NC(=O)[C@H](CC(=O)O)NC(=O)[C@H](CC(C)C)NC(=O)[C@H](CCCNC(=N)N)NC(=O)[C@H](CCC(=O)O)NC(=O)[C@H](CC(C)C)NC(=O)[C@H](CO)NC(=O)[C@@H](NC(=O)[C@@H]3CCCN3C(=O)[C@@H]3CCCN3)[C@@H](C)CC)C(C)C)[C@@H](C)O)[C@@H](C)CC)[C@@H](C)CC)C(=O)O)C2=O)CCO[C@H]2CC[C@@]3(C)C(=CC[C@H]4[C@@H]5CC[C@H]([C@H](C)CCCC(C)C)[C@@]5(C)CC[C@@H]43)C2)C1=O)C(=O)O)[C@@H](C)CC", "note": "(stereo partly shown) [HRC4]", "values": [{"measurement": "GFP-fluorescent rash", "value": "no HRC4-treated animals, had a GFP-fluorescent rash"}]}]}
